# B1: G3BP1_(1-168)-WT (domain or fragment)
# chain: MVMEKPSPLLVGREFVRQYYTLLNQAPDMLHRFYGKNSSYVHGGLDSNGKPADAVYGQKEIHRKVMSQNFTNCHTKIRHVDAHATLNDGVVVQVMGLLSNNNQALRRFMQTFVLAPEGSVANKFYVHNDIFRYQDEVFGGFVTEPQEESEEEVEEPEERQQTPEVVPD
# Target: the molecule itself
# Experiment: SEC
protein,measurement,value
B1,binding result,binds

# — publication PMC6605800 (The Journal of Cell Biology, 2019)
